Experimental data as given in patent publication US9415067B2, “Genetic test for liver copper accumulation in dogs and low copper pet diet” (Mars, Inc., priority 2009, dated 2016).

Experiment: Pharmacokinetic study of oral zinc gluconate, plasma zinc by atomic absorption spectrometry
Assay type: in vivo, dog
Settings: from both dogs
Experimental: Two unrelated nine-year old, healthy Labrador Retrievers (1 female and 1 male) were used in a pharmacokinetic study. Food was withheld for a 12-hour period prior to oral administration of zinc, and during the initial 6-hour testing period. Water was freely available. Oral zinc gluconate was administered at a dose of 10 mg/kg in dog 1, and at a dose of 5 mg/kg in dog 2. Heparinized blood samples (4 ml) were collected from the jugular vein before dosing (time 0) and 15, 30, 45, 60, 90, 120 minutes, and 4, 8, 12 and 24 hours after application of the drug. Plasma was stored at −20° C. until analysis for zinc using atomic absorption spectrometry.
Pharmacokinetic parameters (WinNonlin 4.0.1. (Pharsight Corporation, 800 West El Camino Real, Mountain View, Calif., USA) and statistical analysis (SPSS 11.0 for windows, 2001, SPSS Inc., Chicago, Ill., USA) were calculated by use of commercially available software packages. Due to small group sizes a non-parametric statistical test was used for comparison between groups. A Mann-Whitney test was used to detect a difference between hepatic copper concentrations before and after treatment with diet and zinc-gluconate (group-1) at two control examinations (recheck-1 and recheck-2), and after treatment with diet and placebo (group-2) at both control examinations. […]

zinc gluconate
calculated half-life of zinc t½: 15.1 h
